Data as given in patent US9993554B2 (CENTRO NACIONAL DE INVESTIGACIONES ONCOLOGICAS (CNIO), priority 2010, dated 2018).

Tested on: phospho-Ser-473-Akt
Assay: AKT phosphorylation inhibition, Western blot cell assay
Details: read-out: IC50 of AKT Phosphorylation Inhibition, p-AKT cell; cell assay procedure

## CS(=O)(=O)N1CCN(Cc2cn3cc(-c4cnc(N)nc4)nc(N4CCOCC4)c3n2)CC1
  IC50: 8 nM
